This note sets out measurements from publication PMC6471177 (Pharmaceutics, 2019).

Amino acid sequences for entries named in this document (tags omitted).
UniProt P08183, whole entry: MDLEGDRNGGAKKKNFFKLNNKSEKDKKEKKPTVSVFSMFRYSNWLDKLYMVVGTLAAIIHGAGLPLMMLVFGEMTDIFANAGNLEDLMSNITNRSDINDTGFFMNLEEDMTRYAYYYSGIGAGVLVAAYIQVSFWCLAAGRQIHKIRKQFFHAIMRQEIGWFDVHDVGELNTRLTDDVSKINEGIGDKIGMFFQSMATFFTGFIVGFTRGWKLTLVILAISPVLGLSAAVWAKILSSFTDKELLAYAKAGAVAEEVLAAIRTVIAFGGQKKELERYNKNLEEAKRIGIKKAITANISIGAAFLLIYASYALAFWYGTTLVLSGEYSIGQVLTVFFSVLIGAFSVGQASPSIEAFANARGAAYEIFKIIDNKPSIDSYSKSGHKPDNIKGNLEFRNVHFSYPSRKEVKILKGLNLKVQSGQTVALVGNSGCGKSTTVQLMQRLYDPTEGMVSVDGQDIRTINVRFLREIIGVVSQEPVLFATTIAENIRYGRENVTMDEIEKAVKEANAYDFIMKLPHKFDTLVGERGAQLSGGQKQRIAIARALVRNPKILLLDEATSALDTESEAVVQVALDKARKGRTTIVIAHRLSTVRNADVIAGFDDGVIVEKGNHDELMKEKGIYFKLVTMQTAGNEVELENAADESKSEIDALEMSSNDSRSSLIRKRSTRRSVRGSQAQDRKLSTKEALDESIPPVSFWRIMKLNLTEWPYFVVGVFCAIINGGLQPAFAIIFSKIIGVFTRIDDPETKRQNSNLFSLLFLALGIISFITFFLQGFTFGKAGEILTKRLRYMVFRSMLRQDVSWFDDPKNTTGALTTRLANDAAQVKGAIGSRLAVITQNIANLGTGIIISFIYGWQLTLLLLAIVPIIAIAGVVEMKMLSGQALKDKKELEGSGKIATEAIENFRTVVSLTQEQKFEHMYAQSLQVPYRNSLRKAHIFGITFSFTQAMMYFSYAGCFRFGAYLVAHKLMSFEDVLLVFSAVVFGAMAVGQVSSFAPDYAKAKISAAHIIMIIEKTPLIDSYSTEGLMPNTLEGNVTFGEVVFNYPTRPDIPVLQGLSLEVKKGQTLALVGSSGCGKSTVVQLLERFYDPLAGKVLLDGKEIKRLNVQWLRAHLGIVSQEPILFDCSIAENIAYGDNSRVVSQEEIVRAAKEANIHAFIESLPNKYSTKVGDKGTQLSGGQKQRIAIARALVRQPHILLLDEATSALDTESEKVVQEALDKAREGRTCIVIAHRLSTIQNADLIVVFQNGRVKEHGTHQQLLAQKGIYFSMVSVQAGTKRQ

For data set [1], the target named is P-gp (Homo sapiens, UniProt P08183). To be noted: Caco-2.
The subject of data set [2] is P-gp.

Marks after values point to notes of the source that are not given here.

For the substance rhodamine-123, on P-gp [1], the “Efflux Ratio of rhodamine-123” value was 6.49, the “Papp Absorptive (A to B) of rhodamine-123” value is 0.231 ± 0.0388 × 10^−6 cm/s and the “Papp Secretory (B to A) of rhodamine-123” value is 1.50 ± 0.113 ^a × 10^−6 cm/s. Further, in the data set with P-gp [2], the “Papp Absorptive (M to S) of rhodamine-123” value is recorded as 0.105 ± 0.0387 × 10^−6 cm/s and the “Papp Secretory (S to M) of rhodamine-123” value is reported as 0.629 ± 0.160 ^a × 10^−6 cm/s.
